In article PMC3585324, “InterAKTions with FKBPs - Mutational and Pharmacological Exploration” (PLoS ONE, 2013):

Target: T1, GST_Akt1^S473D (UniProt P31749 1-480, S473D)
T1 construct: Akt1 with the phosphomimetic S473D, called constitutively active; also called purified GST-tagged Akt1S473D; GST-tagged active Akt
T1 sequence (looked up): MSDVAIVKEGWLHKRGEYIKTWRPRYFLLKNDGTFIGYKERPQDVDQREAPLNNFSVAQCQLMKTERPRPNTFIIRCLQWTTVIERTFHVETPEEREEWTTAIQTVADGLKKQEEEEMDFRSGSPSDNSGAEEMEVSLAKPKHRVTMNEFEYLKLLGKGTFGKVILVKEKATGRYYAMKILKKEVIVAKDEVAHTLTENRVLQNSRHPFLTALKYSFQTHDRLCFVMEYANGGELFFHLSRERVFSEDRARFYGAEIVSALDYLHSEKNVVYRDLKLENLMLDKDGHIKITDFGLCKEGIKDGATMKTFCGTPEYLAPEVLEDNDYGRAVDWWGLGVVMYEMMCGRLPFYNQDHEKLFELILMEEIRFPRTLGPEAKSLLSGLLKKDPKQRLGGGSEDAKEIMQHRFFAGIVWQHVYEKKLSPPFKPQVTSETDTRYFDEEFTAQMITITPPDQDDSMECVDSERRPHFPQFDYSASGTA
Assay: pull-down; GST pull-down: 15 µM FKBPs or Cyp40 with 22 µM GST_Akt1 S473D or GST_Akt1 S473D_ΔPH on glutathione resin, 3 h, 4 °C, NETN buffer (20 mM Tris-HCl pH 8.0, 100 mM NaCl, 1 mM EDTA, 0.5% igepal); AMP-PNP (5 mM), rapamycin (1 µM) or DMSO where indicated; Western blot
Conditions: both partners purified

binding result: binds
B1: purified FKBP12.6 (natural protein, UniProt P68106 1-108, looked up)
chain: MGVEIETISPGDGRTFPKKGQTCVVHYTGMLQNGKKFDSSRDRNKPFKFRIGKQEVIKGFEEGAAQMSLGQRAKLTCTPDVAYGATGHPGVIPPNATLIFDVELLNLE
notes: FKBP12.6, His-tagged full length
